Data taken from patent US6620831B2, “Indazoles substituted with 1,1-dioxoisothiazolidine useful as inhibitors of cell proliferation” (LG Life Sciences Ltd., priority 2000, dated 2003).

Biological target: T1, CDK2/cyclin A (Homo sapiens, UniProt P24941)
T1 construct: made in house; host or cells: insect ('worm') cells co-infected with baculoviruses
Assay: CDK2 inhibitory activity (CDK2/cyclin A, [gamma-32P] ATP, histon H1 or Rb protein substrate)
Format: biochemical
Details: first IC50 column (c1) of Table 1
Description: CDK2 enzyme was obtained from either extract from the worm cell co-infected with baculovirus which expresses a CDK2 gene and baculovirus which expresses a cyclin A gene, or active enzyme purified therefrom. CDK4 was also obtained from either extract from the worm cell co-infected with baculovirus which expresses a CDK4 gene and baculovirus which expresses a cyclin D1 gene. As substrates, histon H1 or Rb protein was used for CDK2, and Rb protein for CDK4. The radioactive activities in substrates were determined by reacting compounds diluted with each concentration with a proper quantity of CDK2/cyclin A or CDK4/cyclin D1 and substrate protein, and [gamma-32P labeled] ATP, and then separating the substrates.
Inhibitory abilities of inhibitors according to the present invention for each enzyme activity were expressed as IC50 values, which were determined in accordance with the method as described above.

IC50: < 50 nM
SMILES: O=C(Cc1ccc(N2CCCCC2)cc1)Nc1n[nH]c2ccc(N3CCCS3(=O)=O)cc12 [Compound 34, N-[5-(1,1-dioxo-1λ^6-isothiazolidin-2-yl)-1H-indazol-3-yl]-2-[4-(1-piperidinyl)phenyl]acetamide]
